In publication PMC8245773, “Brevibacillin 2V, a Novel Antimicrobial Lipopeptide With an Exceptionally Low Hemolytic Activity” (Frontiers in Microbiology, 2021):

System: K. pneumoniae LMG20218
Assay: Synergy assay, checkerboard method
Conditions: antibiotic + brevibacillin, synergistic ≤0.5

Q: How did the FICI turn out when `CO[C@H]1/C=C/O[C@@]2(C)Oc3c(C)c(O)c4c(O)c(c(/C=N/N5CCN(C)CC5)c(O)c4c3C2=O)NC(=O)/C(C)=C\C=C\[C@H](C)[C@H](O)[C@@H](C)[C@@H](O)[C@@H](C)[C@H](OC(C)=O)[C@@H]1C` [Rifampicin] was run?
A: Its FICI is 0.281.
